Data taken from PubChem BioAssay AID1645870 (National Center for Advancing Translational Sciences (NCATS), 2021).
This is a selection; strong and weak results do not stand in their true shares. Results filed as inconclusive are left out. Calls of active or inactive are those of the source. Calls follow the shape of the dose curve; as a rule, active = well fitted inhibition curve with a large enough effect; inconclusive = small, poorly fitted or top-dose-only effect; inactive = flat fitted curve, though single readings scatter.

Protein sequences, listed by entry. Tags and fused reporters are not part of them.
UniProt Q9BV86, whole entry: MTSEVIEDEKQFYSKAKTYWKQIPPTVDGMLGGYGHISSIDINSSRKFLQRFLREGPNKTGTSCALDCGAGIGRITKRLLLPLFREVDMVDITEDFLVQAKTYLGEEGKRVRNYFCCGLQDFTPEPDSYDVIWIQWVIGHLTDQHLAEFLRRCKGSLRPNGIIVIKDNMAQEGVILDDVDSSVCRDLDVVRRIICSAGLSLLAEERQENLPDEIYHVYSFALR

Each compound was assayed against N-terminal Xaa-Pro-Lys N-methyltransferase 1 (Homo sapiens) (UniProt Q9BV86) (assay: Primary qHTS for Inhibitors of N-terminal methyltransferase 1 (NTMT1): MTaseGlo Assay). Conditions: NTMT1 MTase-Glo SAH luminescence, purified enzyme; at 57.5 µM (top of the series).
Source text: Assay Submitter (PI): Rong Huang Ph.D.
Purdue University, West Lafayette, IN 47907
The N-terminal methytransferase 1 is the first methyltransferase that methylates protein alpha-N-amines and plays an important role in regulating cell mitosis, chromatin interactions and DNA repair. It is observed to be over-expressed in various cancer patient tissues like malignant melanoma and colorectal cancer tissues. Knockdown of NTMT1 in cancer cells causes cell mitotic defects and enhances sensitivity to DNA damaging chemotherapeutics. […] These critical cellular processes in which NTMT1 is implicated, coupled with emerging links to cellular dysfunction, strengthen the inference that NTMT1 is a compelling novel anticancer target. […] To address this unmet need, a panel of assay is created and established to enable quantitative high-throughput screening (qHTS) for novel, potent, and selective small molecule NTMT1 inhibitors. […]
MTaseGlo Assay is a luminescence screen that measure the activity of methyltransferases based on the reaction product S-adenosyl homocysteine (SAH). […]
8; Reagent; 5 uL; Dispense 5 uL of 1x MTase-Glo Detection Solution (R) to allow for ADP to be converted to ATP which was then detected with a luciferase reaction. […]
11; Detection; Luminescence; Plates were read on ViewLux detector (PerkinElmer). […]
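Also: plate controls were DMSO vehicle for no effect and no enzyme for full effect; nearly all actives have a fitted effect of over 65% in size.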

**Q.** With `CN(CCCl)CCCl` as the compound, how does the activity change, negative = inhibition read?
**A.** inactive: 14.9%
